Laboratory results published in patent publication US7332495B2 (priority 2002, dated 2008).

System: NMDA receptor
Assay: Electrophysiology of hippocampus's pyramidal cell: NMDA-induced current
Type: cell-based
Conditions: perfusion alone at 200 μM

SMILES: Nc1ccc(CN2CCN(CC(=O)c3ccccc3)CC2)cc1 [IV-12, N^1-(4-aminobenzyl)-N^4-phenacyl piperazine]
- Effect on electric current of resting membrane: did not affect
